Article PMC8199578, “Anti-Inflammatory, Antiallergic, and COVID-19 Main Protease (M^pro) Inhibitory Activities of Butenolides from a Marine-Derived Fungus Aspergillus terreus” (Molecules, 2021)

Molecular target: T1, human neutrophil elastase (Homo sapiens, UniProt P08246)
T1 construct: followed by fMLF (0.1 μM) for 20 min to release the elastase from the cells; endogenous in cells; host or cells: human neutrophils; degranulation supernatant after CB/fMLF stimulation
T1 sequence (P08246 30-247 limits assumed): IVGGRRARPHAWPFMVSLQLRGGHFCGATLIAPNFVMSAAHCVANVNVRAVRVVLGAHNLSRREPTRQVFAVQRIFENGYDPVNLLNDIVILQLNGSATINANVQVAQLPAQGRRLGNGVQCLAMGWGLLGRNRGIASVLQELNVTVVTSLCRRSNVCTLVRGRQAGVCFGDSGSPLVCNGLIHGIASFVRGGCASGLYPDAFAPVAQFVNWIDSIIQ
Experiment: Elastase enzymatic activity (cell-free)
Format: biochemical
Conditions: positive control
Experimental: The compounds were further tested for direct inhibition of elastase enzymatic activity. The neutrophil suspension (6 × 10^5 cells mL^−1) was preheated for 5 min in the presence of CaCl2 (1 mM) at 37 °C. Priming agent CB (1.5 μg mL^−1) was added for 2 min, followed by fMLF (0.1 μM) for 20 min to release the elastase from the cells. After centrifugation at 1000 g for 5 min at 4 °C, the supernatant containing elastase was preheated at 37 °C for 5 min, and the test compounds were added. Then, 0.1 mM of substrate methoxysuccinyl-Ala-Ala-Pro-Val-p-nitroanilide was added for 10 min. The effect of the compounds on elastase enzymatic activity was quantified by measuring the absorbance at 405 nm.

CC(C)(C)C(=O)Oc1ccc(S(=O)(=O)Nc2ccccc2C(=O)NCC(=O)O)cc1 [Sivelestat, reference compound]
IC50: 0.0179 µM
